## Binding of CDR-mutated scFvs to a peptide of the spike HR2 region

The target is the same throughout: PDVDLGDISGINAS, from the HR2 region of SARS-CoV-2 spike.

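Phage display of a naive human antibody library on the peptide gave the parent. These sequences belong to a second round, designed from the earlier measurements on random variants of the parent. Several design methods are mixed in this list. In AlphaSeq, yeast of one mating type display the scFv and yeast of the other type display the target. Binding brings cells together so that they mate, and sequencing counts the barcode pairs among the diploids. The ratio of observed to expected reads was calibrated, replicate by replicate, on BCL2-family standards whose Kd was known from biolayer interferometry. Each pool was mated in six replicate cultures.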

Each scFv is VH, the linker GGGGSGGGGSGGGGS, VL, as in the parent Ab-14, and differs from it in the CDRs of the heavy chain only.
VH: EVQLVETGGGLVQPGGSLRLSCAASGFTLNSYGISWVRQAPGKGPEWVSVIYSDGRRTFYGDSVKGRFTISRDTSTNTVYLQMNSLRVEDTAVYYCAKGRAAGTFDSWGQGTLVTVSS
VL: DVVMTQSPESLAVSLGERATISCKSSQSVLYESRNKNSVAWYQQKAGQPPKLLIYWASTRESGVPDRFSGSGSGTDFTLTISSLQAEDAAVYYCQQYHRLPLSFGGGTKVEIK

Each variant is given by its three heavy chain CDRs, as the data file delimits them; those of the parent are GFTLNSYGIS, VIYSDGRRTFYGDSVK, GRAAGTFDS. The read-out is the apparent dissociation constant on a log10 scale (nM): the lower, the stronger. "nd" means that the variant was in the library but no mating with the target was seen in that replicate; the authors take this as a sign of poor binding, and no number exists.

CDR-H1,CDR-H2,CDR-H3,"replicates, log10 nM"
GFSLNEYGIS,VIYSDGRRTFYQDSVK,GRNAGTFDS,-0.07 -0.27 -0.03 -0.28 -0.47 -0.12
GFDLNEYGIS,VIYADGRRTSYVDSVK,GQVAGTFDV,-0.94 -0.98 -0.35 -0.83 -1.00 -0.58
GFTLNQYGIS,VIYSDGRRTFYSDSGK,GRAEGFFDS,nd nd nd nd nd nd
GFTLNSYGIS,VIYSDGRRTFYTDSVK,GMTAGTFDS,1.07 0.37 0.15 0.57 0.15 0.62
GFDLNEYGVS,VIYADGIRTAYADSFK,GNVGVALFQ,nd nd nd nd nd nd
KFNLNSYGIS,VIYSDGRRTFYKDSVK,GRTAGTFDS,nd nd nd nd nd nd
GFELNSYGIS,VIYSDGRRTFYIDSVK,GSAAGTFDS,-0.19 -0.35 -0.58 -0.05 -0.23 -0.53
GFNLDEYGIS,VIYADGRRTFYADSVK,GSNGGTFDT,0.92 0.23 1.34 0.73 0.75 0.68
GFCLNDYGIS,VIYSDGRRTFYADSVK,GRAAGTFDM,nd nd nd nd nd nd
GFSLNYYGIS,VIYSDGKRTFYGDSVK,GRTAGTFDS,nd 0.47 nd 1.16 nd 1.43
GFNLNSYGIS,VIYSDGRRTFYDDSVK,GQAAGTFDS,0.96 0.69 0.85 1.42 0.53 0.91
GFTLNSYGIS,VIYSDGRRTWYGDSVK,GRAAGTFDS,0.99 1.18 0.53 0.68 1.44 0.84
GFTLDQYGIS,VIYSDGRRTFYHDSVK,GRAAGTFDS,1.40 1.34 0.72 0.62 1.14 1.00
GFTLNDYGIS,VIYSDGRRTFYADSVK,GRAAGTFDK,0.52 0.61 0.61 0.25 1.20 -0.17
GFDLNSYGIS,VIYSDGRRTFYADSVK,GKAAGTFDS,nd nd nd 1.22 0.70 2.19
GFTLNEYGIP,VIYSDGRRTFYGDSVK,GRAAVTFDQ,nd nd nd nd nd nd
GFDINEYGIS,VIYADGMRTAYVQQVK,GQHLGFVEV,nd nd nd nd nd nd
GFDLNEYGIS,VIYADGIRTFYADSVK,GNQAGTFDV,-0.92 -1.12 -1.06 -1.01 -0.80 -0.65
GFQLNSYGIS,VIYSDGRRTFYGDSVK,GRNAGTFDT,0.40 1.14 0.96 0.76 0.54 0.77
GDGLEDYGIS,VIYADGMRTYYAPSVK,GEVNGVMDI,nd nd nd nd nd nd
GFTLNSYGIS,VIYSDGLRLFYGDSVK,GNAAGTFDS,nd nd nd nd nd nd
GFTLNSYGIS,VIYSDGRRTFYSDQVK,GKEAGTFDS,1.96 0.63 1.74 0.73 0.52 1.41
GFELNSYGIS,VIYSDGRRTFYGDSVK,GRAAGTFDT,0.73 0.78 0.74 0.58 0.69 0.65
GFTLNSYGIS,VIYSDGRRTFYADSVK,GQVAGTFDT,0.60 0.52 1.17 0.83 0.58 0.33
GFDLNEYGIS,VIYADGVRTAYADSVK,GEAAGTFDS,-0.35 -0.50 -0.20 -0.46 -0.23 0.14
GFDLEEYGIS,VIYADGQRTAYADSVK,GNVAGTFDL,0.01 -0.20 0.06 -0.28 -0.52 -0.16
GFTLNSYGIS,VIYSDGRRTFYGDSVK,GNHAGTFDS,nd 1.89 1.93 1.18 nd 2.79
GFSLNSYGIS,VIYSDGRRTFYADRVK,GQTAGTFDS,0.30 0.82 0.78 1.44 nd nd
GFTLNSYGIS,VIYSDGRRTFYMDSVK,DRAAGTFKS,nd nd nd nd 1.57 nd
GFNLDEYGIS,VIYADGYRRMYADDVK,GMNSGFGGT,nd nd nd nd nd nd
GFSLNNYGIS,VIYSDGRRTFYADSVK,GQAAGTFDS,0.04 -0.20 0.24 -0.39 0.25 0.46
GFQLNEYGIS,VIYADGRRTFYGDSVK,GVAAGTFDS,-0.94 -0.01 -0.96 -0.47 -1.25 -0.45
GFNLNSYGIS,VIYSDGRRTFYKDSVK,GRMAGTFDS,0.68 1.32 1.81 2.19 1.35 0.92
GFPLNEYGIS,VIYSDGRRTFYGDSVK,GRVAGTFDS,nd nd nd nd nd nd
GFALNSYGIS,VIYSDGRRTFYLDSVK,GRAAGTFDS,1.02 0.69 1.25 0.24 0.32 0.43
GFDINEYGIS,VIYADGRRTAYADSVK,GEAAGTFDS,-0.09 -0.17 -0.38 -0.37 -0.35 -0.17
GFTLNSYGES,VIYSDGRRTFYGDSVR,GRAAGAFDT,nd nd nd nd nd nd
GFDLDEYGIS,VIYADGRRTAYADSVK,GEVAGTFDT,0.13 -0.24 -0.01 -0.41 -0.81 -0.02
GDNLDEYGIS,VIYADGHRTAYSNPVK,GEYGVTVGQ,nd nd nd nd nd nd
GFTLNEYGIS,VIYSDGRRTFYGDSVK,GRATVTFDQ,nd nd nd nd nd nd
GFSLNSYGIS,VIYSDGRRTFYSDSVK,GRTAGTFDT,-0.10 0.18 0.47 -0.02 0.00 -0.12
GFTLNEYGIS,VIYSDGRRTAYGDSVK,GRVAGTFDS,-0.74 -0.09 -0.86 -0.51 -0.54 -0.67
GFTLNSYGIS,VIYSDGRRTFYSDSVK,GQVAGKFDS,nd nd nd nd nd 0.99
GFDLNEYGIS,VIYADGRRTAYLDSVK,GNAAGTFDV,-0.46 -0.58 -0.89 -0.69 -0.55 -0.53
GFTLNEYGIS,VIYSDGRRTFYGDSVK,GRMAGTFDV,0.28 -0.22 0.87 0.45 0.20 0.28

Picked from the list: the 3 lowest averages where every replicate gave a value.

CDR-H1	CDR-H2	CDR-H3	replicates, log10 nM
GFDLNEYGIS	VIYADGIRTFYADSVK	GNQAGTFDV	-0.92 -1.12 -1.06 -1.01 -0.80 -0.65
GFDLNEYGIS	VIYADGRRTSYVDSVK	GQVAGTFDV	-0.94 -0.98 -0.35 -0.83 -1.00 -0.58
GFQLNEYGIS	VIYADGRRTFYGDSVK	GVAAGTFDS	-0.94 -0.01 -0.96 -0.47 -1.25 -0.45

The authors' rule: three or more of the six replicates give a measured affinity, fewer mean a poor binder. A sequence measured in both rounds can read differently, since the two assays cover different ranges. As a blank, each scFv also met three strains without target: over all heavy chain designs, 1% of these pairings were detected, typically at 2.08 and seldom below 0.84.

From the AlphaSeq antibody data of Li et al. 2023 (doi:10.1038/s41467-023-39022-2), copy in the FLAb collection.